Laboratory results from PMC3828125 (Biochemistry, 2011).

Amino acid sequences for entries named in this document (tags omitted). A change or cut given only in a name is not applied to a line headed by its entry.
UniProt P08684: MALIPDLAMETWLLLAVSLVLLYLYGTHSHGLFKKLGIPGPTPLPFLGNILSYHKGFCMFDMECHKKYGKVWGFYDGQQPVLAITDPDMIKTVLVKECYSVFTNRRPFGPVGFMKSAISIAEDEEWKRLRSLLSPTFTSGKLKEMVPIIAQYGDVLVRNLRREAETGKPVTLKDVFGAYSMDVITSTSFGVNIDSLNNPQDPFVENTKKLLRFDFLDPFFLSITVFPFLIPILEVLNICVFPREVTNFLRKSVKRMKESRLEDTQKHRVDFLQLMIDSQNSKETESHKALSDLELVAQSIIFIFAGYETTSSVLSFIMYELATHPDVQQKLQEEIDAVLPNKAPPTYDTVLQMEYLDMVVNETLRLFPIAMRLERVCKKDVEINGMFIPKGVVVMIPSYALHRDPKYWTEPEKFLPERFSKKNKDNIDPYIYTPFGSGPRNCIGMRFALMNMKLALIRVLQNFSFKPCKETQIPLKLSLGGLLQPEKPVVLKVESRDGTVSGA

Target: CYP3A4 (Homo sapiens, UniProt P08684, S18F)
Conditions: 260 μM Carbamazepine alone, 1 μM CYP3A4; eq 6

SMILES: NC(=O)N1c2ccccc2C=Cc2ccccc21 [CBZ, carbamazepine]
- rapp, proton peak aa′: 7.88±0.45 Å
